ChEMBL document CHEMBL2163228, “Structure-based discovery of substituted 4,5'-bithiazoles as novel DNA gyrase inhibitors” (J Med Chem, 2012)

Tested on: Staphylococcus aureus
Details: ATCC 29213

GENTAMICIN was tested. Which MIC did it give?
The MIC was 0.5 µg/mL.
